{"source": "paper PMC7766583", "about": "“Ionic Environment Affects Biomolecular Interactions of Amyloid-β: SPR Biosensor Study” (International Journal of Molecular Sciences, 2020)", "binders": {"B1": {"name": "17β-hydroxysteroid dehydrogenase type 10 (enzyme, human, UniProt Q99714 1-261, looked up)", "chain": "MAAACRSVKGLVAVITGGASGLGLATAERLVGQGASAVLLDLPNSGGEAQAKKLGNNCVFAPADVTSEKDVQTALALAKGKFGRVDVAVNCAGIAVASKTYNLKKGQTHTLEDFQRVLDVNLMGTFNVIRLVAGEMGQNEPDQGGQRGVIINTASVAAFEGQVGQAAYSASKGGIVGMTLPIARDLAPIGIRVMTIAPGLFGTPLLTSLPEKVCNFLASQVPFPSRLGDPAEYAHLVQAIIENPFLNGEVIRLDGAIRMQP", "notes": "17β-hydroxysteroid dehydrogenase type 10 (17β-HSD10), human, recombinant, bought from Fitzgerald; also called 17β-HSD10; 17β-hydroxysteroid dehydrogenase 10; source: bought: Fitzgerald (human, recombinant)"}}, "key": {"[1]": {"molecular_target": "T1, amyloid beta 1-40 (human, UniProt P05067 672-711)", "T1 construct": "amyloid beta fragment 1-40 (40 amino acids), human, synthetic; numbers count on: the Aβ peptide; Used in a monomeric form (Preparation C) and an oligomeric form (Preparation A); The two forms are told apart by the assay; also called Aβ_(1–40); Aβ; source: synthetic peptide; bought: AnaSpec", "assay": "SPR; 17β-HSD10 captured on an amine-coupled anti-17β-HSD10 antibody; monomeric Aβ1-40 (Preparation C) injected at 1 μM for 5 min; running buffer 10 mM HEPES pH 7.4, 5 mM Na+, BSA 200 μg/mL, K+ 0-500 mM, Mg2+ 0-50 mM; 25 °C, 20 µL/min; reference-compensated response 5 min after return to buffer", "conditions": "both partners purified"}, "[2]": {"molecular_target": "T2, amyloid beta 1-42 (human, UniProt P05067 672-713)", "T2 construct": "amyloid beta fragment 1-42 (42 amino acids), human, synthetic; numbers count on: the Aβ peptide; Used in an oligomeric form (Preparation A) and a monomeric form (Preparation B); The two forms are told apart by the assay; also called Aβ_(1–42); Aβ; source: synthetic peptide; bought: AnaSpec", "assay": "SPR; 17β-HSD10 captured on an amine-coupled anti-17β-HSD10 antibody; oligomeric Aβ1-42 (Preparation A) injected at 1 μM for 5 min; running buffer 10 mM HEPES pH 7.4, 5 mM Na+, BSA 200 μg/mL, K+ 0-500 mM, Mg2+ 0-50 mM; 25 °C, 20 µL/min; reference-compensated response 5 min after return to buffer", "conditions": "both partners purified"}}, "data": [{"binder": "B1", "values": [{"measurement": "binding result", "setting": "[1]", "result": "binds"}, {"measurement": "binding result", "setting": "[2]", "result": "binds"}]}]}
